Assay: POV (peroxide value) reduction in mixed citrus oil
Conditions: DMESi 0.2614 g; for Reduction in POV (%): vs untreated

Substance: Dimethylethylsilane
- POV (mmol/L) of treated (0 d since addition): 53.69 mmol/L
- Reduction in POV (%) (0 d since addition): 0.00%
- POV (mmol/L) of treated (0.04 d since addition): 39.17 mmol/L
- Reduction in POV (%) (0.04 d since addition): 27.04%
- POV (mmol/L) of treated (1.24 d since addition): 41.85 mmol/L
- Reduction in POV (%) (1.24 d since addition): 29.19%
- POV (mmol/L) of treated (5 d since addition): 49.28 mmol/L
- Reduction in POV (%) (5 d since addition): 29.66%
- POV (mmol/L) of treated (14 d since addition): 45.98 mmol/L
- Reduction in POV (%) (14 d since addition): 26.69%
